Experiment [1] addresses Sodium-dependent noradrenaline transporter (Homo sapiens, UniProt P23975).
Experiment [2] has as its target T1, Acetylcholinesterase (Homo sapiens, UniProt P22303). It is filed as functional.
Experiment [3] concerns the target T1, Acetylcholinesterase. It is filed as functional. The source holds these as a separate data set.
Experiment [4] addresses Voltage-gated inwardly rectifying potassium channel KCNH2 (Homo sapiens, UniProt Q12809).
Experiment [5] addresses Kappa-type opioid receptor (Homo sapiens, UniProt P41145).
The target of experiment [6] is Voltage-dependent L-type calcium channel subunit alpha-1C (Homo sapiens, UniProt Q13936). The format is functional, cell-based.
Experiment [7] addresses T2, Alpha-1A adrenergic receptor (Homo sapiens, UniProt P35348).
T2 sequence (P35348 whole entry): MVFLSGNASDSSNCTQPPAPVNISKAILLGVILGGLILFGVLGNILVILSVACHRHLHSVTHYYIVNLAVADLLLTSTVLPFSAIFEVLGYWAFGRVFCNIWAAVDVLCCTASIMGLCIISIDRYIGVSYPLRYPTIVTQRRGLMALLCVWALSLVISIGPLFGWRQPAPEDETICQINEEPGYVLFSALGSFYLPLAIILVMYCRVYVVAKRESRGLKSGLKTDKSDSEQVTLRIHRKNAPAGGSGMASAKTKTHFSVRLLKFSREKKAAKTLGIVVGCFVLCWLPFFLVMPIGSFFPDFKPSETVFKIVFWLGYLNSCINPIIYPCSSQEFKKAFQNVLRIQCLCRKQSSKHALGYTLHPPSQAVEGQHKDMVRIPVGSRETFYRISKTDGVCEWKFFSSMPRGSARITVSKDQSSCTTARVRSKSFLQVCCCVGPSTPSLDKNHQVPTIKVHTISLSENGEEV

Chains of the proteins cited; added tags and fusions are not shown. Lines headed by an entry give the natural chain unless they say otherwise; changes in a name come on top.
UniProt P23975, whole entry: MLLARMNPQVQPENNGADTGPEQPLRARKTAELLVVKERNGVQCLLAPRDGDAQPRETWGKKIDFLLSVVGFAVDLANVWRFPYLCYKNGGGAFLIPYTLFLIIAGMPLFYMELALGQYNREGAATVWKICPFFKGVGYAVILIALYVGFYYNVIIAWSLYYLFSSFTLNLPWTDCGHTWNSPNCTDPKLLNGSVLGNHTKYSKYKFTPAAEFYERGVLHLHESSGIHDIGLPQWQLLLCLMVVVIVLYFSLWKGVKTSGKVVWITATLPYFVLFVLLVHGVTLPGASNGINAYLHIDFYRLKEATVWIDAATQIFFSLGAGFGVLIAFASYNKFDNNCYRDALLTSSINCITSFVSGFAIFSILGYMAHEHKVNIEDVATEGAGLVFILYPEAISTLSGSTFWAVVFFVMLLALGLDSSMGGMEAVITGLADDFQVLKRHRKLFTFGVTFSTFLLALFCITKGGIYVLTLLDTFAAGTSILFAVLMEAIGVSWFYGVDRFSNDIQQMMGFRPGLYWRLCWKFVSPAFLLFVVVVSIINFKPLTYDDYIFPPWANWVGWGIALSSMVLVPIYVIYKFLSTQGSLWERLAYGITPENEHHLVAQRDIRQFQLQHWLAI
UniProt P22303: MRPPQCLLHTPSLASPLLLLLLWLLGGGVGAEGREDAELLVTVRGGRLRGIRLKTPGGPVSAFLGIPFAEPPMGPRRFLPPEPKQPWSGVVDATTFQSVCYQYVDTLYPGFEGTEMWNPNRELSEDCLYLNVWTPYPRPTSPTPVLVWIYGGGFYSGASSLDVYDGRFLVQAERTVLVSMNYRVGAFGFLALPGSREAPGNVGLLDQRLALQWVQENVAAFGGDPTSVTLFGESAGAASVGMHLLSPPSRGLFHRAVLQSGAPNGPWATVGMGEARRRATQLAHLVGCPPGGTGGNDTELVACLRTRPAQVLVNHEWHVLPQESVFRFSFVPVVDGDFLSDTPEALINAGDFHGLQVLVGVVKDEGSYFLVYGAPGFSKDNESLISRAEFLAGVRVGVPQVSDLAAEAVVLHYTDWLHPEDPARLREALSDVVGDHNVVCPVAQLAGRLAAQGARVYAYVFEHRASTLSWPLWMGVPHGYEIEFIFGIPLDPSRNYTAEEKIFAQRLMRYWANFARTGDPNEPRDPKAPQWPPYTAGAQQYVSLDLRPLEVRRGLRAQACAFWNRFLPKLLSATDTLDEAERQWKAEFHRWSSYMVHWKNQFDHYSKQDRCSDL
UniProt Q12809: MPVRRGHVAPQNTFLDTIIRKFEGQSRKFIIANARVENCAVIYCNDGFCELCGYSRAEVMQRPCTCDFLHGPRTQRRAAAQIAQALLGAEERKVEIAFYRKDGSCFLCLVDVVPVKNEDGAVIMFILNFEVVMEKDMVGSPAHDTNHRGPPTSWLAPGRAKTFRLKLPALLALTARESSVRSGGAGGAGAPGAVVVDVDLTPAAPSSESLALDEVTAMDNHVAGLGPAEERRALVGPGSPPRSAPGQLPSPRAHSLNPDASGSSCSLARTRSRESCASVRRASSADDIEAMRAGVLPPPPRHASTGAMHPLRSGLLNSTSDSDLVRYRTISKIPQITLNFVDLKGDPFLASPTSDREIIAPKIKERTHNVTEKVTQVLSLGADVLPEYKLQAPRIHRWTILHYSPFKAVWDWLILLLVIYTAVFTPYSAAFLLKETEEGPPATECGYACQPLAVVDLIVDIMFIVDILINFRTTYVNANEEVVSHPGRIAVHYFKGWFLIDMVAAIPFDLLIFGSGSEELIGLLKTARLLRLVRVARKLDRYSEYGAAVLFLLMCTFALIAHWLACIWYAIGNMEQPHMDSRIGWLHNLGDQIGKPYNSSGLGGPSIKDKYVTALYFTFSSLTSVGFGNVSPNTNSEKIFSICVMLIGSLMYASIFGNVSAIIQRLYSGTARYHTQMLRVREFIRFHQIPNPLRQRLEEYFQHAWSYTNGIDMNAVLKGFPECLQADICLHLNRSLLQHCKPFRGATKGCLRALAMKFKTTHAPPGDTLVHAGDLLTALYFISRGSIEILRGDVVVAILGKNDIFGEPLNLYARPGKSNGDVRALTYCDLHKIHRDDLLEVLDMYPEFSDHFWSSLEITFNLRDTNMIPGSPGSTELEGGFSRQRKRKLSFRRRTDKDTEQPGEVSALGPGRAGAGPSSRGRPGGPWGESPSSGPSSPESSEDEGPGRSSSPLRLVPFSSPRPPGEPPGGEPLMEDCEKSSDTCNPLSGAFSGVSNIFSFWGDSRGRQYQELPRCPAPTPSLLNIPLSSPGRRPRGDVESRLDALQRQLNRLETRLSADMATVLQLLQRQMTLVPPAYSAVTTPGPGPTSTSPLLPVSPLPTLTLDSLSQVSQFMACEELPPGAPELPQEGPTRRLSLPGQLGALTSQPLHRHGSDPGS
UniProt P41145: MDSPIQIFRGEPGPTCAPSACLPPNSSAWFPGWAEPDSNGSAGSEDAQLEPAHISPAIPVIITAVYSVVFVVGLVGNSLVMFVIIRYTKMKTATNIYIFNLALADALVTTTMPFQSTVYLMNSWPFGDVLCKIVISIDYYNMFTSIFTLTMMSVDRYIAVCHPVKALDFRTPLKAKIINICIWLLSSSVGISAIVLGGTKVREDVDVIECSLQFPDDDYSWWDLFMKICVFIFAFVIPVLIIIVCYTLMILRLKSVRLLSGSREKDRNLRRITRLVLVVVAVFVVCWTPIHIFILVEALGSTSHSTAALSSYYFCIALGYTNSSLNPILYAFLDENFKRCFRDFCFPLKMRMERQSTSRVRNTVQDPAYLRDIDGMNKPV
UniProt Q13936, whole entry: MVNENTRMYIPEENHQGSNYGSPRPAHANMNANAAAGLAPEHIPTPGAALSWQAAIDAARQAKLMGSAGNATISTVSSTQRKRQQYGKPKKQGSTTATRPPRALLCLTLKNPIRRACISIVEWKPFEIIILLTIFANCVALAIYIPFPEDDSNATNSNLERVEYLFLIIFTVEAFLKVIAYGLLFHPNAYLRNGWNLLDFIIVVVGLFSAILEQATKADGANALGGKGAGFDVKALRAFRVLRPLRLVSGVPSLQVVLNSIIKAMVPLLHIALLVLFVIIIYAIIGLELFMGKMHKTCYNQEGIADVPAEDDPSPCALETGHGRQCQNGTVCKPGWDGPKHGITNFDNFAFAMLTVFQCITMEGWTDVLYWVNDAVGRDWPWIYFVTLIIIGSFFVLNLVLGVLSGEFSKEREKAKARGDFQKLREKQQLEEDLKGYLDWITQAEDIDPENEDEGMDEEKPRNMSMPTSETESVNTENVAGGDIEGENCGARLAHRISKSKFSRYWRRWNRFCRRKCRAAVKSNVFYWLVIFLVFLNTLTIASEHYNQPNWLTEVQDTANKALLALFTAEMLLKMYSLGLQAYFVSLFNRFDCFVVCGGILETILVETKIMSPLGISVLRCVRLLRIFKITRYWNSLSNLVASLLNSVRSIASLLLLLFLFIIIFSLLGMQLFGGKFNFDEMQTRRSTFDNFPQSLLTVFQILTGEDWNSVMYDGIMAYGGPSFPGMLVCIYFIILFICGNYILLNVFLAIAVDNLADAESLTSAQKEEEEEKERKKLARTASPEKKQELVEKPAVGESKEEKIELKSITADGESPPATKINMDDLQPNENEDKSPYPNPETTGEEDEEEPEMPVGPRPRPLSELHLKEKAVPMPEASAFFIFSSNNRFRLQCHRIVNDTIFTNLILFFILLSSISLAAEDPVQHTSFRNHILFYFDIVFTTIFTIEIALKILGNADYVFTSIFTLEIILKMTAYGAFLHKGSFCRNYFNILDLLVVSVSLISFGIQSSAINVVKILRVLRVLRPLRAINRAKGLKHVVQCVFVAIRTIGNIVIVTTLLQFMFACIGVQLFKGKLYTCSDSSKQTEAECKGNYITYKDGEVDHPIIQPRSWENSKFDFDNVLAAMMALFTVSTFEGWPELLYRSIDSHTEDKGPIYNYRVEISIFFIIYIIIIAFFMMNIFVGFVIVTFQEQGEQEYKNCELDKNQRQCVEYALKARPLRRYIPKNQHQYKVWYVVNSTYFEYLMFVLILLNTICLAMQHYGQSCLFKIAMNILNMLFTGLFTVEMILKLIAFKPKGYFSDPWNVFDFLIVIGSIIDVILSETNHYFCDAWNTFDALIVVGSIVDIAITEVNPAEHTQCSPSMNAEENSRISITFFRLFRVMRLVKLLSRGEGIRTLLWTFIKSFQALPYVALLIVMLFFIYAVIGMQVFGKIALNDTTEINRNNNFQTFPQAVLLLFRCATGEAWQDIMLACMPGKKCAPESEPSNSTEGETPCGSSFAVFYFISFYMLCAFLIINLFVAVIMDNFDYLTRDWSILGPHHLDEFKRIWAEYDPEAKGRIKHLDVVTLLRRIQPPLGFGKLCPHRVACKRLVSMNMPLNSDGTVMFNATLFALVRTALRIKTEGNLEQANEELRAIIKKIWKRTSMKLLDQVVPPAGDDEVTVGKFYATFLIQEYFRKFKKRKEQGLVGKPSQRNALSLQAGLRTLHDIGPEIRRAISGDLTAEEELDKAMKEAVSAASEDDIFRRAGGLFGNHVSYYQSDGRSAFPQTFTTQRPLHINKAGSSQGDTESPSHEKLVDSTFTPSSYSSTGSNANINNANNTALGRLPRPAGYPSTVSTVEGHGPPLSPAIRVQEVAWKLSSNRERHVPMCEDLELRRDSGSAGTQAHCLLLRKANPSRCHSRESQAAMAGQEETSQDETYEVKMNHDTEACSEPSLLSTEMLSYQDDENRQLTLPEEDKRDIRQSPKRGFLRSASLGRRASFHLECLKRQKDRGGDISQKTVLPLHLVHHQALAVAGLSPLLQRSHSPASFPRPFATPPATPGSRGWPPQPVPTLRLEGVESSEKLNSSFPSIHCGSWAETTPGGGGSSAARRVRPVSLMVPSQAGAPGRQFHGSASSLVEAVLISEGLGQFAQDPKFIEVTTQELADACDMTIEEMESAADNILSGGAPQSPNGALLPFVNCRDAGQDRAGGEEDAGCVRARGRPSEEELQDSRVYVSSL

Where only a bound is given, the exact number is not on record here.
Further: assay procedure not described here.

As usually defined, the AC50 is the midpoint of the concentration-response curve, whichever way the signal moves. `CC(NC(C)(C)C)C(=O)c1cccc(Cl)c1` (stereo not drawn) [BUPROPION] yielded an AC50 in experiment [1] of more than 10000 nM.

On to `CC[C@H]1OC(=O)[C@H](C)[C@@H](O[C@H]2C[C@@](C)(OC)[C@@H](O)[C@H](C)O2)[C@H](C)[C@@H](O[C@@H]2O[C@H](C)C[C@H](N(C)C)[C@H]2O)[C@](C)(O)C[C@@H](C)C(=O)[C@H](C)[C@@H](O)[C@]1(C)O` [ERYTHROMYCIN], for which the half-maximal activity concentration (AC50) on Acetylcholinesterase [2] and at Acetylcholinesterase [3] was more than 30000 nM throughout.

Molecule `CN1CCCCC1CCN1c2ccccc2Sc2ccc([S+](C)[O-])cc21` (stereo not drawn) [MESORIDAZINE] gave a half-maximal activity concentration (AC50) in experiment [4] of 3600 nM.

The molecule `COc1ccc2c3c1O[C@H]1C(=O)CC[C@H]4[C@@H](C2)N(C)CC[C@]314` [HYDROCODONE] registered a half-maximal activity concentration (AC50) in experiment [5] of 766 nM.

In the case of `CC(C)COCC(CN(Cc1ccccc1)c1ccccc1)N1CCCC1` (stereo not drawn) [BEPRIDIL], the half-maximal activity concentration (AC50) is 251 nM in experiment [4] and more than 50000 nM in experiment [6].

With `CN(C)CCOC1=Cc2ccccc2Sc2ccc(Cl)cc21` [ZOTEPINE], in experiment [7], the concentration at half-maximal activity (AC50) came to 3 nM.

The record behind these values is ChEMBL document CHEMBL5291721, “A preclinical secondary pharmacology resource illuminates target-adverse drug reaction associations of marketed drugs” (Nat Commun, 2023).
